Results as given in US9260700B2 (priority 2011, dated 2016).

Experiments:
[1] = target: Magnaporthe oryzae bilirubin oxidase (BOD), produced in Pichia pastoris, SEQ. ID. No.3 (SEQ. ID. No.1 with additional N-terminal serine) (Pyricularia oryzae, UniProt G4MQU0)
[2] = tested on: Myrothecium verrucaria bilirubin oxidase (BOD); details: pH 6.5; Kataoka et al. 2005; cited from earlier work
[3] = tested on: Myrothecium verrucaria bilirubin oxidase (BOD), produced in Pichia pastoris; details: pH 6.5, with respect to ABTS; cited from earlier work

## CCn1c(=NN=c2sc3cc(S(=O)(=O)O)ccc3n2CC)sc2cc(S(=O)(=O)O)ccc21 [ABTS, 2,2′-azino-bis(3-ethylbenzothiazoline-6-sulphonic acid)]
[1]; 37° C., 0.1M citrate/phosphate buffer pH 4, ABTS 0 to 4 mM
  kcat: 664 s⁻¹
[1]; Table I, substrate ABTS
  kcat (for ABTS): 668 s⁻¹
[2]
  kcat: 115 s⁻¹
[3]
  kcat: 164 s⁻¹
